Measured values: IntAct's records for PubMed 21172304

B1: Protein BTG2 (Homo sapiens), P78543 (parent)
chain: MSHGKGTDMLPEIAAAVGFLSSLLRTRGCVSEQRLKVFSGALQEALTEHYKHHWFPEKPSKGSGYRCIRINHKMDPIISRVASQIGLSQPQLHQLLPSELTLWVDPYEVSYRIGEDGSICVLYEEAPLAASCGLLTCKNQVLLGRSSPSKNYVMAVSS

Variants of: B1
Conditions: with andr_human AR

For MSHGKGTDMLPEIAAAVGFLSSLLRTRGCVSEQRLKVFSGALQEALTEHYKHHWFPEKPSKGSGYRCIRINHKMDPIISRVASQIGLSQPQAHQLAPSELTLWVDPYEVSYRIGEDGSICVLYEEAPLAASCGLLTCKNQVLLGRSSPSKNYVMAVSS [L92A;L96A], which “effect of a mutation on the interaction” value is on record?
The value was “disrupting interaction”.
